SMILES strings stand for the structures.

Protein sequences, listed by entry. Tags and fused reporters are not part of them.
UniProt P12821, whole entry: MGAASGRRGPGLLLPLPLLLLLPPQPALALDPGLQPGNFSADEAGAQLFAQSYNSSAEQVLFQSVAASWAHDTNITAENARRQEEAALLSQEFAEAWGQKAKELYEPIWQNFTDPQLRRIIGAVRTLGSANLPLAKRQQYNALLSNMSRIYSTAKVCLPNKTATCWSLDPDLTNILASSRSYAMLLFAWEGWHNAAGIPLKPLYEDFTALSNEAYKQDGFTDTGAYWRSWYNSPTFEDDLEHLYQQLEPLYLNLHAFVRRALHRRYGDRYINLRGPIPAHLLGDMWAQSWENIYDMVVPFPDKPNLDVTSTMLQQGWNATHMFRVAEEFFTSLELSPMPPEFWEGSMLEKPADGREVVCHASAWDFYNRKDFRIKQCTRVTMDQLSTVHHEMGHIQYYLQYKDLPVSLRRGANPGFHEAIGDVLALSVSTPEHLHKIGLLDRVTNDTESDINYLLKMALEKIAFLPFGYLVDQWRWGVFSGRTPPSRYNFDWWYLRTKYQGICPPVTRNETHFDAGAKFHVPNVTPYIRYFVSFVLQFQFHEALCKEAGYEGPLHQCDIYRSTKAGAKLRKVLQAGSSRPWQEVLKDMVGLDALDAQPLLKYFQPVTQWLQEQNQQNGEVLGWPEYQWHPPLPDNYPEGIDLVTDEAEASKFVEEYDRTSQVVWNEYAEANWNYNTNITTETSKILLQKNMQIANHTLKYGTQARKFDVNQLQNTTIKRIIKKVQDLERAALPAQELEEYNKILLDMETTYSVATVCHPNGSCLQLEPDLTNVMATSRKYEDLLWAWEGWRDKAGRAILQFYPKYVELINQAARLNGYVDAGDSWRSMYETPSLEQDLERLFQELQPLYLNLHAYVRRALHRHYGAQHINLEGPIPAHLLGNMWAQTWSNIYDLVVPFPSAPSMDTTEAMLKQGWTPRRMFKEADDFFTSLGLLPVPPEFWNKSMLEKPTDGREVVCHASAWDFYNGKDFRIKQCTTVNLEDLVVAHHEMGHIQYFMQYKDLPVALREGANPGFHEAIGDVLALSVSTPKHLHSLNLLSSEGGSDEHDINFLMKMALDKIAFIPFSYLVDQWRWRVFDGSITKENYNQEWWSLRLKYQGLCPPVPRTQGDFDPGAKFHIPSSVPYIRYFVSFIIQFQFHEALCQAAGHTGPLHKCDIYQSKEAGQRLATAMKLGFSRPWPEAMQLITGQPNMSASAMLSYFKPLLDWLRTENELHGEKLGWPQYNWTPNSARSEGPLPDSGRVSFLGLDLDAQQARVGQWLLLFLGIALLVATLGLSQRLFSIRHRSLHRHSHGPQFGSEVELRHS

The assay has as its target Angiotensin-converting enzyme (Homo sapiens, UniProt P12821). Put plainly: Inhibition of ACE (unknown origin).

`CC(C)[C@H](N)C(=O)N1CCC[C@H]1C(=O)N1CCC[C@H]1C(=O)O`: the IC50 was 8 µM. That is a single-digit micromolar value. On to `CC[C@H](C)[C@H](N)C(=O)N1CCC[C@H]1C(=O)N1CCC[C@H]1C(=O)O`, for which the 50% inhibitory concentration (IC50) stood at 5 µM.

Values taken from ChEMBL document CHEMBL6177964 (Eur J Med Chem, 2025).
